# Results published in patent US6936585B2, “Corticotropin releasing factor 2 receptor agonists” (priority 2002, dated 2005).
# Columns and labels:
# [1] = molecular target: T1, CRF2R (Homo sapiens, UniProt Q13324); test: CRF2R agonist activation (EC50 / Emax), called comparative CRF binding; type: cell-based; details: for Emax: read-out: CRF2R Emax
# T1 sequence (Q13324 1-411): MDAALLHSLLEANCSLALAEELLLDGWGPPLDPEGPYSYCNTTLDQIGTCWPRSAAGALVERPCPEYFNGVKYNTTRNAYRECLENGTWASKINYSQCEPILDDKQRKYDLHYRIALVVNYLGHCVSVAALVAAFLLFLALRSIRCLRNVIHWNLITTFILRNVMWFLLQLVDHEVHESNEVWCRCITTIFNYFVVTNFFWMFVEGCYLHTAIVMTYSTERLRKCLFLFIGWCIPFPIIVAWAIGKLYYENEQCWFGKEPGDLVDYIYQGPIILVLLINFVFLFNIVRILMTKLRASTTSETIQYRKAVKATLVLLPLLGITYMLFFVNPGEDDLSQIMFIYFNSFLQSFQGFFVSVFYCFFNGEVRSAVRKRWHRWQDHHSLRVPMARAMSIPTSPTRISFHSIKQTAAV
# Summary of the method: (§1)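 Peptides are tested on cells bearing CRF1R or CRF2R, full length or as ligand-binding-domain constructs coupled to reporters or G proteins. Activation is scored by cAMP rise, measured in lysates or by CRE-reporter output, against vehicle control.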
# [2] = molecular target: T2, CRF1R (Homo sapiens, UniProt P34998); test: CRF1R agonist activation (EC50 / Emax), called comparative CRF binding; type: cell-based; details: for EC50: CRF1R EC50; for Emax: read-out: CRF1R Emax
# T2 sequence (P34998 24-415): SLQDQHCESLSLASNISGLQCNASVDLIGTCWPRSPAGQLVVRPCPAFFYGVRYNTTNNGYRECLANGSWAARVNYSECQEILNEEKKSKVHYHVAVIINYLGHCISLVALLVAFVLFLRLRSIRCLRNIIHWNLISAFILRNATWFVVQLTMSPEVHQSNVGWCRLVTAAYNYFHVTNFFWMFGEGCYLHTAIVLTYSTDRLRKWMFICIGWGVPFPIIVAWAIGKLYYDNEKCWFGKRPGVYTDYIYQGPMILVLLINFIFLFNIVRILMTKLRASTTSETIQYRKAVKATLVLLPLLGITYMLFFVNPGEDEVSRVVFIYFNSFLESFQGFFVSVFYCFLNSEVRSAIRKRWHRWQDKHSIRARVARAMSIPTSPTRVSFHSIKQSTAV
# Summary of the method: as §1
Compound,EC50 [1] [nM],Emax [1] [%],EC50 [2] [nM],Emax [2] [%]
CC[C@H](C)[C@H](NC(=O)[C@H](CCCNC(=N)N)NC(=O)[C@H](C)NC(=O)[C@H](CC(N)=O)NC(=O)[C@@H](NC(=O)[C@@H](NC(=O)[C@H](C)NC(=O)[C@H](CCC(N)=O)NC(=O)[C@H](CCC(N)=O)NC(=O)[C@H](CCCCN)NC(=O)[C@H](CCC(=O)O)NC(=O)[C@H](CCCCN)NC(=O)[C@H](CCC(=O)O)NC(=O)[C@H](CCC(N)=O)NC(=O)[C@H](CCCCN)NC(=O)[C@H](CCC(=O)O)NC(=O)[C@@H](NC(=O)[C@H](CCC(=O)O)NC(=O)[C@@H](NC(=O)[C@H](CCSC)NC(=O)[C@H](CCCCN)NC(=O)[C@H](CCCNC(=N)N)NC(=O)[C@H](CC(C)C)NC(=O)[C@H](CC(C)C)NC(=O)[C@H](Cc1ccc(O)cc1)NC(=O)[C@H](Cc1ccccc1)NC(=O)[C@@H]1CCCN1C(=O)[C@H](CC(C)C)NC(=O)[C@H](CC(=O)O)NC(=O)[C@@H](NC(=O)[C@H](CO)NC(=O)[C@@H](NC(=O)[C@@H]1CCCN1C(=O)[C@@H]1CCCN1C(=O)CNC(=O)[C@@H]1CCC(=O)N1)[C@@H](C)CC)[C@@H](C)CC)[C@@H](C)CC)[C@@H](C)CC)[C@@H](C)O)[C@@H](C)O)C(=O)N[C@@H](CC(C)C)C(=O)N[C@@H](C)C(=O)N[C@@H](CCCNC(=N)N)C(=O)N[C@H](C(N)=O)C(C)C [compound 147],6.75,94,102,96
CC[C@H](C)[C@H](NC(=O)[C@H](CCC(N)=O)NC(=O)[C@H](C)NC(=O)[C@H](CC(C)C)NC(=O)[C@H](CC(C)C)NC(=O)[C@H](CCC(N)=O)NC(=O)[C@H](C)NC(=O)[C@H](CC(N)=O)NC(=O)[C@H](CC(N)=O)NC(=O)[C@H](C)NC(=O)[C@H](C)NC(=O)[C@H](CCC(N)=O)NC(=O)[C@H](CCC(N)=O)NC(=O)[C@H](CCCCN)NC(=O)[C@H](CCC(=O)O)NC(=O)[C@H](CCCCN)NC(=O)[C@H](CCC(=O)O)NC(=O)[C@H](CCC(N)=O)NC(=O)[C@H](CCCCN)NC(=O)[C@H](CCC(=O)O)NC(=O)[C@@H](NC(=O)[C@H](CCC(=O)O)NC(=O)[C@@H](NC(=O)[C@@H](NC(=O)[C@H](CCCCN)NC(=O)[C@H](CCCNC(=N)N)NC(=O)[C@H](CC(C)C)NC(=O)[C@H](CC(C)C)NC(=O)[C@H](CCC(N)=O)NC(=O)[C@H](Cc1ccccc1)NC(=O)[C@@H]1CCCN1C(=O)[C@H](CC(C)C)NC(=O)[C@H](CC(=O)O)NC(=O)[C@@H](NC(=O)[C@H](CO)NC(=O)[C@@H](NC(=O)[C@@H]1CCCN1C(=O)[C@@H]1CCCN1C(=O)CNC(=O)[C@@H]1CCC(=O)N1)[C@@H](C)CC)[C@@H](C)CC)C(C)C)[C@@H](C)CC)[C@@H](C)CC)C(N)=O [compound 276],22.1,100,≥ 1000,75.7
CC[C@H](C)[C@H](NC(=O)[C@@H](NC(=O)[C@H](C)NC(=O)[C@H](CC(C)C)NC(=O)[C@H](CC(C)C)NC(=O)[C@H](CC(C)C)NC(=O)[C@H](C)NC(=O)[C@H](CC(N)=O)NC(=O)[C@H](CC(N)=O)NC(=O)[C@H](C)NC(=O)[C@H](C)NC(=O)[C@H](CCC(N)=O)NC(=O)[C@H](CCC(N)=O)NC(=O)[C@H](CCCCN)NC(=O)[C@H](CCC(=O)O)NC(=O)[C@H](CCCCN)NC(=O)[C@H](CCC(=O)O)NC(=O)[C@H](CCC(N)=O)NC(=O)[C@H](CCCCN)NC(=O)[C@H](CCC(=O)O)NC(=O)[C@@H](NC(=O)[C@H](CCC(=O)O)NC(=O)[C@@H](NC(=O)[C@@H](NC(=O)[C@H](CCCCN)NC(=O)[C@H](CCCNC(=N)N)NC(=O)[C@H](CC(C)C)NC(=O)[C@H](CC(C)C)NC(=O)[C@H](CCC(N)=O)NC(=O)[C@H](CC(C)C)NC(=O)[C@@H]1CCCN1C(=O)[C@H](CC(C)C)NC(=O)[C@H](CC(=O)O)NC(=O)[C@@H](NC(=O)[C@H](CO)NC(=O)[C@@H](NC(=O)[C@@H]1CCCN1C(=O)[C@@H]1CCCN1C(=O)CNC(=O)[C@@H]1CCC(=O)N1)[C@@H](C)CC)[C@@H](C)CC)C(C)C)[C@@H](C)CC)[C@@H](C)CC)[C@@H](C)O)C(N)=O [compound 349],13.7,100,≥ 1000,44.2
CC[C@H](C)[C@H](NC(=O)[C@@H](NC(=O)[C@H](C)NC(=O)[C@H](CC(C)C)NC(=O)[C@H](CC(C)C)NC(=O)[C@H](CC(C)C)NC(=O)[C@H](C)NC(=O)[C@H](CC(N)=O)NC(=O)[C@H](CC(N)=O)NC(=O)[C@H](C)NC(=O)[C@H](C)NC(=O)[C@H](CCC(N)=O)NC(=O)[C@H](CCC(N)=O)NC(=O)[C@H](CCCCN)NC(=O)[C@H](CCC(=O)O)NC(=O)[C@H](CCCCN)NC(=O)[C@H](CCC(=O)O)NC(=O)[C@H](CCC(N)=O)NC(=O)[C@H](CCCCN)NC(=O)[C@H](CCC(=O)O)NC(=O)[C@@H](NC(=O)[C@H](CCC(=O)O)NC(=O)[C@@H](NC(=O)[C@@H](NC(=O)[C@H](CCCCN)NC(=O)[C@H](CCCNC(=N)N)NC(=O)[C@H](CC(C)C)NC(=O)[C@H](CC(C)C)NC(=O)[C@H](Cc1c[nH]cn1)NC(=O)[C@H](Cc1ccc(O)cc1)NC(=O)[C@@H]1CCCN1C(=O)[C@H](CC(C)C)NC(=O)[C@H](CC(=O)O)NC(=O)[C@@H](NC(=O)[C@H](CO)NC(=O)[C@@H](NC(=O)[C@@H]1CCCN1C(=O)[C@@H]1CCCN1C(=O)CNC(=O)[C@@H]1CCC(=O)N1)[C@@H](C)CC)[C@@H](C)CC)C(C)C)[C@@H](C)CC)[C@@H](C)CC)[C@@H](C)O)C(N)=O [compound 313],11.1,95,704,87.1
CC[C@H](C)[C@H](NC(=O)[C@@H](NC(=O)[C@H](CC(=O)O)NC(=O)[C@H](CC(C)C)NC(=O)[C@H](CC(C)C)NC(=O)[C@H](CC(C)C)NC(=O)[C@H](C)NC(=O)[C@H](CC(N)=O)NC(=O)[C@H](CC(N)=O)NC(=O)[C@H](C)NC(=O)[C@H](C)NC(=O)[C@H](CCC(N)=O)NC(=O)[C@H](CCC(N)=O)NC(=O)[C@H](CCCCN)NC(=O)[C@H](CCC(=O)O)NC(=O)[C@H](CCCCN)NC(=O)[C@H](CCC(=O)O)NC(=O)[C@H](CCC(N)=O)NC(=O)[C@H](CCCCN)NC(=O)[C@H](CCC(=O)O)NC(=O)[C@@H](NC(=O)[C@H](CCC(=O)O)NC(=O)[C@@H](NC(=O)[C@H](CCSC)NC(=O)[C@H](CCCCN)NC(=O)[C@H](CCCNC(=N)N)NC(=O)[C@H](CC(C)C)NC(=O)[C@H](CC(C)C)NC(=O)[C@H](Cc1c[nH]c2ccccc12)NC(=O)[C@H](Cc1ccc(O)cc1)NC(=O)[C@@H]1CCCN1C(=O)[C@H](CC(C)C)NC(=O)[C@H](CC(=O)O)NC(=O)[C@@H](NC(=O)[C@H](CO)NC(=O)[C@@H](NC(=O)[C@@H]1CCCN1C(=O)[C@@H]1CCCN1C(=O)CNC(=O)[C@@H]1CCC(=O)N1)[C@@H](C)CC)[C@@H](C)CC)[C@@H](C)CC)[C@@H](C)CC)[C@@H](C)O)C(N)=O [compound 310],,87.5,,45.3
CC[C@H](C)[C@H](NC(=O)[C@@H](NC(=O)[C@H](CC(=O)O)NC(=O)[C@H](CC(C)C)NC(=O)[C@H](CC(C)C)NC(=O)[C@H](CC(C)C)NC(=O)[C@H](CCCNC(=N)N)NC(=O)[C@H](CC(N)=O)NC(=O)[C@H](CC(N)=O)NC(=O)[C@H](C)NC(=O)[C@H](C)NC(=O)[C@H](CCC(N)=O)NC(=O)[C@H](CCC(N)=O)NC(=O)[C@H](CCCCN)NC(=O)[C@H](CCC(=O)O)NC(=O)[C@H](CCCCN)NC(=O)[C@H](CCC(=O)O)NC(=O)[C@H](CCC(N)=O)NC(=O)[C@H](CCCCN)NC(=O)[C@H](CCC(=O)O)NC(=O)[C@@H](NC(=O)[C@H](CCC(=O)O)NC(=O)[C@@H](NC(=O)[C@H](CCSC)NC(=O)[C@H](CCCCN)NC(=O)[C@H](CCCNC(=N)N)NC(=O)[C@H](CC(C)C)NC(=O)[C@H](CC(C)C)NC(=O)[C@H](Cc1ccc(O)cc1)NC(=O)CNC(=O)[C@@H]1CCCN1C(=O)[C@H](CC(C)C)NC(=O)[C@H](CC(=O)O)NC(=O)[C@@H](NC(=O)[C@H](CO)NC(=O)[C@@H](NC(=O)[C@@H]1CCCN1C(=O)[C@@H]1CCCN1C(=O)CNC(=O)[C@@H]1CCC(=O)N1)[C@@H](C)CC)[C@@H](C)CC)[C@@H](C)CC)[C@@H](C)CC)[C@@H](C)O)C(N)=O [compound 63],67.3,100,73.2,34
